Literature values, collected in patent US20260137799A1, “ANTI-MUC1* ANTIBODY DRUG COMPLEXES AND USES THEREOF” (Minerva Biotechnologies Corporation, priority 2023, published 2026).

System: HER2+ breast cancers
Details: cited from earlier work

In the case of Enhertu, the “patients with treatment induced pneumonitis” value (human, in vivo) is given as “Up to 16%” and the increase in survival (metastatic breast cancer patients) is given as “nearly two years”.
